Experimental data taken from patent US7399762B2, “Opioid receptor agonist compounds and their use in treatment of pain” (Research Triangle Institute, priority 2005, dated 2008).

By UniProt entry, the sequences of proteins in these tests, tags left out.
UniProt P41143, whole entry: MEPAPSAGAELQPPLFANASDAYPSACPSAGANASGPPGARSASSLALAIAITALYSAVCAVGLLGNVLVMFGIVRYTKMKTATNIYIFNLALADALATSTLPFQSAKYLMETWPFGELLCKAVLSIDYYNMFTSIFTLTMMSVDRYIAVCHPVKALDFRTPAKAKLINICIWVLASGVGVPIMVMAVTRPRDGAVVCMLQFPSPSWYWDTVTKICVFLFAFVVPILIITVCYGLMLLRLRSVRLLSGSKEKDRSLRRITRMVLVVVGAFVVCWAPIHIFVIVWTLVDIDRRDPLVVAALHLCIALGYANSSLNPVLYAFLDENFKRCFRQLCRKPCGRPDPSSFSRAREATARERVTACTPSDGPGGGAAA

Molecular target: T1, human delta opioid receptor (Homo sapiens, UniProt P41143)
T1 construct: expressed in transfected cells; host or cells: CHO cells (membrane homogenates)
Assay: [35S]GTP-γ-S binding stimulation, intrinsic activity at delta receptor
Type: biochemical
Conditions: compared with DPDPE
Protocol: Determination of intrinsic activity. Test compounds 2.8 and 2.11 were assayed for their ability to stimulate [35S]GTP-γ-S binding in CHO cell membrane homogenates expressing either the human mu or human delta opioid receptor. The compounds were assayed in triplicate at eight different concentrations. […] The membranes were incubated with one of eight concentrations of positive control or test compound, 0.1 nM [35S]GTP-γ-S and 10 μM GDP in a 50 mM HEPES buffer (pH 7.4) at room temperature for one hour, after which bound radioligand was separated from free via rapid vacuum filtration over GF-B filters using a Brandel Scientific (Gaithersburg, MD) 96-well harvester. Bound radioactivity was determined using a TopCount 12-detector instrument (Packard Instruments) using standard scintillation counting techniques. The data were normalized to samples containing vehicle (basal binding), and a three-parameter logistic curve fit to the data using Prism (version 3.0, GraphPad Software, Inc., San Diego, Calif.). The EC50 and upper asymptote (Emax) were calculated for each compound and the data reported as mean ±SEM.

Substance: D-Pen2,D-Pen5]-enkephalin [DPDPE, reference compound]
- intrinsic activity at the delta opioid receptor (in words): full agonist
